Test [1] deals with T1, cloned α1d-adrenoceptor subtype (Homo sapiens, UniProt P25100).
T1 construct: expressed in transfected cells
Nature of the test: Radioligand binding assay ([3H]prazosin), cloned α1d-adrenoceptor subtype. The conditions noted are these: read-out: Binding Affinity (Ki nM) α1d.

Sequences of proteins named here, by UniProt entry; tags and fusion partners are left off.
UniProt P25100, whole entry: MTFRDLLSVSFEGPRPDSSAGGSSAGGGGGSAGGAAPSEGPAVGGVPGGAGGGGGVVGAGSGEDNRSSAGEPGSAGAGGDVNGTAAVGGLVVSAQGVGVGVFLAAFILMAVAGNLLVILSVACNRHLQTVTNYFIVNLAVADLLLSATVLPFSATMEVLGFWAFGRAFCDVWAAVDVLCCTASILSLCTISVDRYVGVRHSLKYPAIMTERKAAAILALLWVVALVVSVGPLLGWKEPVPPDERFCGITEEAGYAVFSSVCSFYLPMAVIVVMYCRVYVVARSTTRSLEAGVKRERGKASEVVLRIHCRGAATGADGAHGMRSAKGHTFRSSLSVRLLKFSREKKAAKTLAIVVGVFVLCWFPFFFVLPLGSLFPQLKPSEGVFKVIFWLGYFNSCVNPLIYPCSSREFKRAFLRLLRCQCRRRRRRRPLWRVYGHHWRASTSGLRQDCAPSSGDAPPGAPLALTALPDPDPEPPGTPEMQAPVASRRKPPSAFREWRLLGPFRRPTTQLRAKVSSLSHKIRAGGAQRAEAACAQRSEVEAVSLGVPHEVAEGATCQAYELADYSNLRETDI
UniProt P35368, whole entry: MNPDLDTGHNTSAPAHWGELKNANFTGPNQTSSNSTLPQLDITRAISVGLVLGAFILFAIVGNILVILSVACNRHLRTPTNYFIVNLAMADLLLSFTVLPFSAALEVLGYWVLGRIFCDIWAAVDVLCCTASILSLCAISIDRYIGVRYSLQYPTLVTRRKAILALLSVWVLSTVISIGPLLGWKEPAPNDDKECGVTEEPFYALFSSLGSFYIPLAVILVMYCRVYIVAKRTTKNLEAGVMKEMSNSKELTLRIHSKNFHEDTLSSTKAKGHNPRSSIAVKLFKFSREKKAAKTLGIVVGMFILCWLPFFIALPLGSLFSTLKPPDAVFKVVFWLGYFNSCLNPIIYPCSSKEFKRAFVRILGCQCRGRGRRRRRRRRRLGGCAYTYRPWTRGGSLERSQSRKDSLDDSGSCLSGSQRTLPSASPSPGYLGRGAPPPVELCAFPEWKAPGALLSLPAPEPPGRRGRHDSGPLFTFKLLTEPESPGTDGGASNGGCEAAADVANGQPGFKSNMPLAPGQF

For test [2], the target named is T2, cloned α1a-adrenoceptor subtype (Homo sapiens, UniProt P35348).
T2 construct: expressed in transfected cells
T2 sequence (P35348 1-466): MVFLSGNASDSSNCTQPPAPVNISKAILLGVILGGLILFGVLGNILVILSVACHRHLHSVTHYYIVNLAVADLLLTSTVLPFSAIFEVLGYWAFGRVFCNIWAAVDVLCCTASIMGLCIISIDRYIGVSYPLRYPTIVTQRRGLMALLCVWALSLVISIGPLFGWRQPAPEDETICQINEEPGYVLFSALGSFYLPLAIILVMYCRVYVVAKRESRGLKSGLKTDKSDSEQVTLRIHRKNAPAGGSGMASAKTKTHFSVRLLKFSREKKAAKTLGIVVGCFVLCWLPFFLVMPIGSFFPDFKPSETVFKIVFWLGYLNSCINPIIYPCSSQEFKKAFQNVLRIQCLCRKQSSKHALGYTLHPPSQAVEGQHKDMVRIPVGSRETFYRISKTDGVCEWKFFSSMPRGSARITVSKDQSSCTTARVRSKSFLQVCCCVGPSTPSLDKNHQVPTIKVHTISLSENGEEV
Kind of test: Radioligand binding assay ([3H]prazosin), cloned α1a-adrenoceptor subtype. The note with it: read-out: Binding Affinity (Ki nM) α1a.

The target of test [3] is T3, cloned α1b-adrenoceptor subtype (Homo sapiens, UniProt P35368).
T3 construct: expressed in transfected cells
Nature of the test: Radioligand binding assay ([3H]prazosin), cloned α1b-adrenoceptor subtype. The conditions noted are these: read-out: Binding Affinity (Ki nM) α1b.

The structures appear in SMILES notation.

On to `COc1ccccc1N1CCN(CCCNC(=O)c2cccc3c(=O)c(C)c(-c4ccccc4)oc23)CC1` [Rec 15/2739], for which the inhibition constant Ki (commonly the equilibrium dissociation constant of an inhibitor or competing ligand from its target) in test [1] was found to be 1.44 nM; in test [2] it was 0.11 nM; in test [3], 4.55 nM.
Consider `O=C1CC2(CCCC2)CC(=O)N1CCN1CCN(c2cc(Cl)ccc2Cl)CC1` [Rec 26D/038], for which the inhibitory constant (Ki) in test [2] amounted to 128 nM.

(Values after patent publication US20020183290A1, “Adrenergic receptor antagonists selective for both alpha1A-and alpha1D-subtypes and uses therefor” (Recordati S.A., Chemical and Pharmaceutical Company, priority 2001, published 2002).)
